{
  "source": "patent US20090175981A1",
  "about": "“COMPOSITIONS, METHODS AND USES FOR A NOVEL FAMILY OF PEPTIDES” (priority 2004, published 2009)",
  "key": {"[1]": {"conditions": "in vivo"}, "[2]": {"tested_on": "enzymes"}, "[3]": {"tested_on": "aminopeptidase M", "experiment": "Degradation by aminopeptidase M"}, "[4]": {"conditions": "mouse, in vivo"}},
  "note": "Read-outs that look alike come from different tables or passages of the source.",
  "data": [
    {"substance": "Me2Bmt-L-dO-I-V-V-dK-V-dL-K-dY-L-V-CH2OH [BT1583]", "values": [
      {"measurement": "absorption by the chicken GI track", "setting": "[1]", "value": "no or very little absorption"},
      {"measurement": "digestion in the GI track", "setting": "[1]", "value": "not digested"},
      {"measurement": "digestion by enzymes", "setting": "[2]", "value": "no known enzymes can digest it"},
      {"measurement": "degradation by aminopeptidase M", "setting": "[3]", "value": "resistant"},
      {"measurement": "digestion in the GI track", "setting": "[4]", "value": "not digested"}
    ]}
  ]
}
